From patent US8618158B2, “Therapeutic agents” (Cancer Research Technology Limited, priority 2008, dated 2013)

Sequences of proteins named here, by UniProt entry; tags and fusion partners are left off.
UniProt Q00987, whole entry: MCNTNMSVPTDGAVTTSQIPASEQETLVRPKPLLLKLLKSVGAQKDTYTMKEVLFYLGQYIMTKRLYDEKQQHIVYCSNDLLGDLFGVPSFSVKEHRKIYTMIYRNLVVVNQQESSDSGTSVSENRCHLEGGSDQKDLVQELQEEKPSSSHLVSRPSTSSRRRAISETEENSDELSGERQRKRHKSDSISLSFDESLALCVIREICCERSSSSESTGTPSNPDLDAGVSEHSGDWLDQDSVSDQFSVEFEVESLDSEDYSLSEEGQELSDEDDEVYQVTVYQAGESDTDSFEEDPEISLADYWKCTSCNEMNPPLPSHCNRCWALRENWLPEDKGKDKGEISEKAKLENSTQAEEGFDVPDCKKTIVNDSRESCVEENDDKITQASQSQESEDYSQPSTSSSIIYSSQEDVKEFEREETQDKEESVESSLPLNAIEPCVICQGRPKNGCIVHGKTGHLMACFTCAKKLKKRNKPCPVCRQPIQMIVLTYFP

Target: MDM2-p53 interaction (Homo sapiens (Human), UniProt Q00987)
Test: MDM2-p53 ELISA binding assay
Conditions: Table 2; mean ± SE of n = 3 unless indicated
Protocol: Streptavidin-coated 96-well plates are used to immobilise a biotin-tagged IP3 p53-derived peptide ([…]). This is a peptide analogue derived from the p53 binding site for MDM2 ([…]). […] Aliquots of MDM2 generated by in vitro translation are pre-incubated for 20 minutes at room temperature (i.e. 20-25° C.) with test compounds and controls, before transfer into the IP3-coated 96-well plates.
3-(4-Chloro-phenyl)-3-(4-hydroxy-3,5-dimethoxy-benzyloxy)-2-propyl-2,3-dihydro-isoindolin-1-one (NU8231) is currently included as a standard “lead compound” positive control. […] The AP peptide is included as a positive control for biological evaluation of the isoindolinones in the cell free binding assays.
All compounds are dissolved in DMSO and tested at a range of concentrations in the presence of a fixed final concentration of 5% DMSO.

## O=C1c2ccccc2C(OC2CCC(O)CC2)(c2ccc(Cl)cc2)N1Cc1ccc([N+](=O)[O-])cc1 (stereo not shown) [NU8360, 3-(4-Chlorophenyl)-3-(4-hydroxycyclohexyloxy)-2-(4-nitrobenzyl)-2,3-dihydroisoindol-1-one]
  IC50: 388 ± 107 nM
